This is an account of results in patent US9115117B2, “Substituted piperidine compounds and their use as orexin receptor modulators” (JANSSEN PHARMACEUTICA NV, priority 2013, dated 2015).

Sequences of proteins named here, by UniProt entry; tags and fusion partners are left off.
UniProt O43614, whole entry: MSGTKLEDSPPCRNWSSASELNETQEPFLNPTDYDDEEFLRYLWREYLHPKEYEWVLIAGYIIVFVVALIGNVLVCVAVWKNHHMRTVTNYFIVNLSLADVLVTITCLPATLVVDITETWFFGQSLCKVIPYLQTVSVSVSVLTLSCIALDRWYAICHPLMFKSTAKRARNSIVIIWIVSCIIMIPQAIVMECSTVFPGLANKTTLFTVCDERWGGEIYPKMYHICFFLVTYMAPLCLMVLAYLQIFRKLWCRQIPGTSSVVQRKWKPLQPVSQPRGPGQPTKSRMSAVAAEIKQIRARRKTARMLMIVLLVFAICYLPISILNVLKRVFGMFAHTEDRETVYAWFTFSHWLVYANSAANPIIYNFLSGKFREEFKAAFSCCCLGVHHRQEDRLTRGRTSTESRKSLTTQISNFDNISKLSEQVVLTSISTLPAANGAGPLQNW

The structures appear in SMILES notation.

In one experiment the target is human orexin 2 receptor (Homo sapiens (Human), UniProt O43614). Description: Human orexin 2 receptor radioligand binding ([3H]-EMPA). The conditions noted are these: HEK293 stably expressing human orexin 2 receptor, apparent Ki, read-out: hOX2 Ki. As for the experimental part:
After centrifugation (2K×G, 5 min at 4° C.), the supernatant was aspirated and the pellets frozen and stored at −80° C. […] Each cell pellet from a 15 cm plate was resuspended in 10 mL, stored on ice, and homogenized for 45 sec just prior to addition to the reactions. Competition binding experiments in 96 well polypropylene plates were performed using [^3H]-EMPA (Moraveck Corporation, specific activity=29.6 Ci/mmol), diluted to a 5 nM concentration in PBS (2 nM final concentration). […] The final concentration of DMSO in the reactions is equal to or less than 0.1%. Total and nonspecific binding was determined in the absence and presence of […]. The total volume of each reaction is 200 μL (20 μL of diluted compounds, 80 μL of [^3H]-EMPA diluted in PBS and 100 μL of the cell suspension).
The plates were washed 3 times by aspirating 30 ml PBS through the plates. Plates were dried in 55° C. oven for 60 min, scintillation fluid was added, and the radioactivity was counted on a Topcount (Packard).

The target of another experiment is rat orexin 1 receptor (Rattus norvegicus, UniProt P56718). The experiment in a line: Rat orexin 1 receptor radioligand binding. The conditions noted are these: HEK293 cells stably expressing rat orexin 1 receptor; apparent Ki; read-out: rOX1 Ki. As for the experimental part: After centrifugation (2K×G, 5 min at 4° C.), the supernatant was aspirated and the pellets frozen and stored at −80° C. […] Each cell pellet from a 15 cm plate was resuspended in 10 mL, stored on ice, and homogenized for 45 sec prior to addition to the reactions. Competition binding experiments in 96 well polypropylene plates were performed using [^3H]-(1-(5-(2-fluoro-phenyl)-2-methyl-thiazol-4-yl)-1-((S)-2-(5-phenyl-(1,3,4)oxadiazol-2-ylmethyl)-pyrrolidin-1-yl)-methanone) (Moraveck Corporation, specific activity=35.3 Ci/mmol), diluted to a 10 nM concentration in PBS (4 nM final). […] The final concentration of DMSO in the reactions is equal to or less than 0.1%. Total and nonspecific binding was determined in the absence and presence of 10 μM almorexant. The total volume of each reaction is 200 μL (20 μL of diluted compounds, 80 μL of [3H]-(1-(5-(2-fluoro-phenyl)-2-methyl-thiazol-4-yl)-1-((S)-2-(5-phenyl-(1,3,4)oxadiazol-2-ylmethyl)-pyrrolidin-1-yl)-methanone) diluted in PBS and 100 μL of the cell suspension). […] The plates were washed 3 times by aspirating 30 ml PBS through the plates. Plates were dried in 55° C. oven for 60 min, scintillation fluid was added, and the radioactivity was counted on a Topcount (Packard).

A further experiment has as its target human orexin 1 receptor (Homo sapiens, UniProt O43613). The experiment in a line: Human orexin 1 receptor radioligand binding. Conditions: CHO cells stably expressing human orexin 1 receptor; apparent Ki; read-out: hOX1 Ki. How it is done: The in vitro affinity of the compounds of the invention for the rat/human orexin 1 and human orexin 2 receptors was determined by competitive radioligand binding using [^3H](1-(5-(2-fluoro-phenyl)-2-methyl-thiazol-4-yl)-1-((S)-2-(5-phenyl-(1,3,4)oxadiazol-2-ylmethyl)-pyrrolidin-1-yl)-methanone)(Langmead et al., 2004) and [^3H]EMPA (n-ethyl-2[96-methoxy-pyridin-3-yl)-(toluene-2-sulfonyl)-amino]-N-pyridin-3-ylmethyl acetamide), respectively (Langmead et al., 2004, British Journal of Pharmacology 141:340-346; Malherbe et al., 2004, British Journal of Pharmacology 156:1326-41).
Human Embryonic Kidney 293 cells (HEK293) stably expressing rat orexin 1 receptor (Genebank accession number NM_001525) or Chinese ovary cells (CHO) stably expressing human orexin 1 receptor (Genebank accession number NM_001526) were grown to confluency in DMEM (Hyclone, cat #SH30022), 10% FBS, 1× Pen/Strep, 1× sodium pyruvate, 10 mM HEPES, 600 µg/mL G418 and DMEM/F12 (Gibco, Cat #11039), 10% FBS, 1× Pen/Strep, 600 µg/mL G418 media, respectively on 150 cm^2 tissue culture plates, washed with 5 mM EDTA in PBS (HyClone Dulbecco's Phoshpate Buffered Saline 1× with Calcium and Magnesium, Cat #SH30264.01, hereafter referred to simply as PBS) and scraped into 50 ml tubes. […] Total and nonspecific binding was determined in the absence and presence of 10 μM almorexant. […]

`COc1c(F)cccc1C(=O)N1CCC[C@@H](Nc2ccc(Br)cn2)[C@@H]1C` (racemic) [Example 43, (±)-trans-(3-((5-bromopyridin-2-yl)amino)-2-methylpiperidin-1-yl)(3-fluoro-2-methoxyphenyl)methanone]: the Ki on human orexin 2 receptor was determined as 4600 nM; on rat orexin 1 receptor, 715 nM.
As to `C[C@H]1[C@H](Nc2nccc(-c3ccccc3)n2)CCCN1C(=O)c1ccccc1-n1nccn1` (racemic) [Example 51, (±)-trans-(2-(2H-1,2,3-triazol-2-yl)phenyl)(2-methyl-3-((4-phenylpyrimidin-2-yl)amino)piperidin-1-yl)methanone], the Ki at rat orexin 1 receptor was 341 nM.
On to `COc1c(F)cccc1C(=O)N1CCC[C@@H](Nc2nccc(-c3ccccc3)n2)[C@@H]1C` (racemic) [Example 52, (±)-trans-(3-fluoro-2-methoxyphenyl)(2-methyl-3-((4-phenylpyrimidin-2-yl)amino)piperidin-1-yl)methanone], for which the Ki on rat orexin 1 receptor was 6200 nM.
As for `CCOc1ccccc1C(=O)N1CCC[C@@H](Nc2nccc(-c3ccccc3)n2)[C@@H]1C` (racemic) [Example 53, (±)-trans-(2-ethoxyphenyl)(2-methyl-3-((4-phenylpyrimidin-2-yl)amino)piperidin-1-yl)methanone], at rat orexin 1 receptor, the Ki stood at 715 nM.
For the compound `C[C@@H]1[C@H](Nc2ccc(Br)cn2)CCCN1C(=O)c1ccccc1-n1nccn1` (racemic) [Example 57, (±)-cis-(2-(2H-1,2,3-triazol-2-yl)phenyl)(3-((5-bromopyridin-2-yl)amino)-2-methylpiperidin-1-yl)methanone], the Ki at human orexin 2 receptor was above 10000 nM.
`COc1c(F)cccc1C(=O)N1CCC[C@@H](Nc2ccc(Br)cn2)[C@H]1C` (racemic) [Example 58, (±)-cis-(3-(5-bromopyridin-2-yl)amino)-2-methylpiperidin-1-yl)(3-fluoro-2-methoxyphenyl)methanone]: the Ki at human orexin 2 receptor and on rat orexin 1 receptor was above 10000 nM each time.
As for `C[C@@H]1[C@H](Nc2nccc(-c3ccccc3)n2)CCCN1C(=O)c1ccccc1-n1nccn1` (racemic) [Example 66, (±)-cis-(2-(2H-1,2,3-triazol-2-yl)phenyl)(2-methyl-3-((4-phenylpyrimidin-2-yl)amino)piperidin-1-yl)methanone], the Ki at rat orexin 1 receptor turned out to be 570 nM.
In the case of `COc1c(F)cccc1C(=O)N1CCC[C@@H](Nc2nccc(-c3ccccc3)n2)[C@H]1C` (racemic) [Example 67, (±)-cis-(3-fluoro-2-methoxyphenyl)(2-methyl-3-((4-phenylpyrimidin-2-yl)amino)piperidin-1-yl)methanone], on rat orexin 1 receptor, the Ki was found to be 840 nM.
Same read-out and setting: as for `CCOc1ccccc1C(=O)N1CCC[C@@H](Nc2nccc(-c3ccccc3)n2)[C@H]1C` (racemic) [Example 68, (±)-cis-(2-ethoxyphenyl)(2-methyl-3-((4-phenylpyrimidin-2-yl)amino)piperidin-1-yl)methanone], the figure is 1400 nM.
In the case of `Cc1ccc(-n2nccn2)c(C(=O)N2CCC[C@@H](Nc3ccc(C(F)(F)F)cn3)[C@@H]2C)n1` [Example 87, ((2S,3R)-2-methyl-3-((5-(trifluoromethyl)pyridin-2-yl)amino)piperidin-1-yl)(6-methyl-3-(2H-1,2,3-triazol-2-yl)pyridin-2-yl)methanone], the values for the Ki on human orexin 2 receptor, on rat orexin 1 receptor and on human orexin 1 receptor were 154 nM, 7 nM and 12 nM, respectively.
Regarding `C[C@H]1[C@H](Nc2ccc(Cl)cn2)CCCN1C(=O)c1ccccc1-n1nccn1` [Example 100, (2-(2H-1,2,3-triazol-2-yl)phenyl)((2S,3R)-3-((5-chloropyridin-2-yl)amino)-2-methylpiperidin-1-yl)methanone], the Ki at rat orexin 1 receptor was determined as 8 nM.
